# AlphaSeq binding of Ab-91 heavy chain variants to a spike HR2 peptide

From the AlphaSeq antibody data of Engelhart et al. 2022 (doi:10.1038/s41597-022-01779-4), copy in the FLAb collection.

Target peptide (SARS-CoV-2 spike, HR2 region): PDVDLGDISGINAS

Ab-91 is the parent antibody, in scFv form: VL, then a (GGGGS)3 linker, then VH. The light chain is unchanged in all variants.
VL: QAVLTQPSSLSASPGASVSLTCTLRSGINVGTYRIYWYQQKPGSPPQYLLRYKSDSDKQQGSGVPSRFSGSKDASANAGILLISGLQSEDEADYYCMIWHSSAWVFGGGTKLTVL
VH: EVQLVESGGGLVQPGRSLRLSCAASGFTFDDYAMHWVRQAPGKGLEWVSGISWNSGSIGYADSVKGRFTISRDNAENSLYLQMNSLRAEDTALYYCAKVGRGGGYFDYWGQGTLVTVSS

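AAYL51 was designed without a model: most single CDR substitutions and a random sample of double and triple ones. AlphaSeq pools MATa yeast showing the antibodies with MATalpha yeast showing the peptide. Binding brings cells together so that they mate, and sequencing counts the barcode pairs among the diploids. Scores were corrected for input abundance and mapped to Kd with protein pairs of known affinity run in the same pool. Each pool was mated in three replicate cultures.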

Substitutions are numbered in sequence along the VH above, starting at 1 (not Kabat). Every variant below is changed at T28 of the VH (sequential numbering). Kd is apparent (estimated from mating counts) and averaged on the log scale over replicates with a signal. Smaller is tighter. A pair that was not seen in any replicate is written "no signal"; this usually means weak binding, but a binder can also be missed. Order: sorted from the lowest average up, undetected variants last. For reference, the parent read 72 nM as the reference entry and 7.5 nM as a member of this library. Background: pairings of library AAYL51 with three empty control strains gave a value in 21% of cases (median 34 µM, 5th percentile 1.8 µM). Values in that range, when seen in few replicates, are hard to tell from nonspecific mating. Also given: how often the same scFv was detected with the empty control strains.

The variant F27G+T28Y+W53P gave 1.1 nM (3 of 3 replicates; controls 3 of 9).
The variant T28K+S55E+Y105A gave 3.4 nM (3 of 3 replicates; controls 1 of 9).
The variant T28R+Y105M+Y108E gave 15 nM (3 of 3 replicates; controls 3 of 9).
The variant T28Q+N54G gave 22 nM (3 of 3 replicates; controls 2 of 9).
The variant T28A+G56W+F106Y gave 56 nM (3 of 3 replicates; controls 2 of 9).
The variant T28E+D30N+D62H gave 57 nM (3 of 3 replicates; controls 6 of 9).
The variant T28R+G56S+D62H gave 280 nM (3 of 3 replicates; controls 2 of 9).
The variant T28L+Y32T+Y108M gave 350 nM (3 of 3 replicates; controls 3 of 9).
The variant T28C+G56R+V64C gave 1.5 µM (3 of 3 replicates; controls 3 of 9).
The variant T28D+D31N+G102K gave 2.4 µM (3 of 3 replicates; controls 2 of 9).
The variant F27E+T28H+S63R gave 2.5 µM (3 of 3 replicates; controls 3 of 9).
The variant T28R+G56T+G103L gave 2.9 µM (3 of 3 replicates; controls 3 of 9).
The variant T28C+S52N+Y60V gave 3.2 µM (3 of 3 replicates; controls 2 of 9).
The variant T28L+I58N+F106L gave 20 µM (2 of 3 replicates; controls 1 of 9).
The variant T28P+I51T+D107L gave 22 µM (1 of 3 replicates; controls 7 of 9).
The variant T28L+H35A+D107S gave 26 µM (1 of 3 replicates; controls 1 of 9).
The variant T28I+K65L+G100C gave 26 µM (2 of 3 replicates; controls 4 of 9).
The variant T28F+A33I+K65Y gave 78 µM (3 of 3 replicates; controls 4 of 9).
The variant T28Y+M34C+H35G gave 87 µM (3 of 3 replicates; controls 9 of 9).
The variant T28W+Y60P+A61E gave 130 µM (3 of 3 replicates; controls 7 of 9).
The variant T28V+N54Y+Y105M gave 150 µM (2 of 3 replicates; controls 5 of 9).
The variant G26P+T28I+D107C gave 150 µM (2 of 3 replicates; controls 3 of 9).
The variant T28A+D31G+K65Y gave 190 µM (1 of 3 replicates; controls 5 of 9).
The variant T28P+A61M+S63F gave 210 µM (1 of 3 replicates; controls 2 of 9).
The variant T28A+S52F+W53D gave 220 µM (1 of 3 replicates; controls 1 of 9).
The variant T28A+F29N+F106E gave 880 µM (1 of 3 replicates; controls 1 of 9).
The variant T28G+H35Q+S55G gave no signal (0 of 3 replicates; controls 1 of 9).
The variant T28V+Y32P+G59S gave no signal (0 of 3 replicates; controls 0 of 9).
The variant T28R+V64A+G100V gave no signal (0 of 3 replicates; controls 0 of 9).
The variant T28V+F29V+V64E gave no signal (0 of 3 replicates; controls 0 of 9).
The variant T28S+G50P gave no signal (0 of 3 replicates; controls 2 of 9).
The variant F27N+T28Q+V99R gave no signal (0 of 3 replicates; controls 0 of 9).
The variant T28H+G50Q+G104D gave no signal (0 of 3 replicates; controls 0 of 9).
The variant T28G+G59R+G100Q gave no signal (0 of 3 replicates; controls 0 of 9).
The variant T28K+M34A+G102P gave no signal (0 of 3 replicates; controls 3 of 9).
The variant T28A+G50A+R101M gave no signal (0 of 3 replicates; controls 2 of 9).
The variant T28Y+D62S+G100F gave no signal (0 of 3 replicates; controls 0 of 9).
The variant T28V+M34N+S55C gave no signal (0 of 3 replicates; controls 0 of 9).
The variant T28S+D31V+K65M gave no signal (0 of 3 replicates; controls 0 of 9).
The variant T28P+F29C+R101M gave no signal (0 of 3 replicates; controls 3 of 9).

The first 6 variants above that were never detected:

Variant T28G+H35Q+S55G gave no signal (0 of 3 replicates; controls 1 of 9).
Variant T28V+Y32P+G59S gave no signal (0 of 3 replicates; controls 0 of 9).
Variant T28R+V64A+G100V gave no signal (0 of 3 replicates; controls 0 of 9).
Variant T28V+F29V+V64E gave no signal (0 of 3 replicates; controls 0 of 9).
Variant T28S+G50P gave no signal (0 of 3 replicates; controls 2 of 9).
Variant F27N+T28Q+V99R gave no signal (0 of 3 replicates; controls 0 of 9).